These results are taken from patent publication US8975247B2, “Methods and compositions of treating a flaviviridae family viral infection” (priority 2009, dated 2015).

Protein sequences, listed by entry. Tags and fused reporters are not part of them. Lines headed by an entry give the natural chain unless they say otherwise; changes in a name come on top.
UniProt Q12809: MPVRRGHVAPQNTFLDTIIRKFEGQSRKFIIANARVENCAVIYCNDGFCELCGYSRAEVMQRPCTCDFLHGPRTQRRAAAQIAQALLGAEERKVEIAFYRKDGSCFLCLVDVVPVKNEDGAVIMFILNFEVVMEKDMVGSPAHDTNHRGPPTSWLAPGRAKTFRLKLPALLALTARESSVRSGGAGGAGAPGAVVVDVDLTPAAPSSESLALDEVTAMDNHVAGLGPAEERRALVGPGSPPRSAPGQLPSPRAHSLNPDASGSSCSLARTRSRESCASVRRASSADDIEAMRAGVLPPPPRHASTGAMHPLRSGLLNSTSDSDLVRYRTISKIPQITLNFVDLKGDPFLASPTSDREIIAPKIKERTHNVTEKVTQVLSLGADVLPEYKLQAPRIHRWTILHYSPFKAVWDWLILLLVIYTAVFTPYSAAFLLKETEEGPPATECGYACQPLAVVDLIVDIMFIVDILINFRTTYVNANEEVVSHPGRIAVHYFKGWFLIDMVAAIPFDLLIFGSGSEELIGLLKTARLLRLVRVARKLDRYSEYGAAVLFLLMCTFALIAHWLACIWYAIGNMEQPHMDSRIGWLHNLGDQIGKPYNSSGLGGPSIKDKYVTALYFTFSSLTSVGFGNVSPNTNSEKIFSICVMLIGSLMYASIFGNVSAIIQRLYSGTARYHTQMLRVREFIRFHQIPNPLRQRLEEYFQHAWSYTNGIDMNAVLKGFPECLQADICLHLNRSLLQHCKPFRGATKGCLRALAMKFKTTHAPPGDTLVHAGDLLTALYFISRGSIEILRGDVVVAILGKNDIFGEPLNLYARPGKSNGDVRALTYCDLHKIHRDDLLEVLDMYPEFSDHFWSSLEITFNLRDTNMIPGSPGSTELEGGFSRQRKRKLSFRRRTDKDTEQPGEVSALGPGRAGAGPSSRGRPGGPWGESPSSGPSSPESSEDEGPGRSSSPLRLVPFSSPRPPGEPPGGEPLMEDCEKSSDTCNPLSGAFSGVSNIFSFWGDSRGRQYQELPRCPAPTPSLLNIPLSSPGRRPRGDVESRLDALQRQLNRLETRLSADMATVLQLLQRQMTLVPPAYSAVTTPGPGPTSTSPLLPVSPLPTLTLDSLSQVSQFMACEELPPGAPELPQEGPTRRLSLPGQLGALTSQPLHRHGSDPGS

One may read the EC50 as the concentration giving half of the maximal effect. As usually defined, the IC50 is the concentration needed to halve the response being measured. Lower therefore signals greater potency in that assay.

The first test deals with HCV genotype 2a infectious clone. As to the kind of experiment: HCV genotype 2a infectious clone assay (Renilla luciferase). The settings on record: Hepatitis C virus, read-out: 2a EC50. It counts as cell-based.
`Clc1ccc(Cn2c(CN3CCCC3)nc3ccccc32)cc1` [clemizole]: the concentration giving a half-maximal response (EC50) worked out at 8 µM.

The next test relates to luciferase reporter-linked HCV genome in Huh 7.5 cells. As to the kind of experiment: HCV replication assay with luciferase reporter-linked HCV genome, combinations with clemizole. It counts as cell-based. The settings on record: in combination with clemizole, Huh 7.5, 72 hours, MacSynergy II. On the technique in general: In a reporter assay the amount or activity of a reporter protein is the signal.
Consider `NC(=O)c1ncn([C@@H]2O[C@H](CO)[C@@H](O)[C@H]2O)n1` [ribavirin], for which the “additivity or synergy with clemizole” value is listed as “additivity”.

On to `CNC(=O)c1c(-c2ccc(F)cc2)oc2cc(N(CCO)S(C)(=O)=O)c(C3CC3)cc12` [HCV796], for which the “additivity or synergy with clemizole” value was “additivity”.

On to `CC(C)(C)OC(=O)N[C@H]1CCCCC/C=C\[C@@H]2C[C@@]2(C(=O)NS(=O)(=O)C2CC2)NC(=O)[C@@H]2C[C@@H](OC(=O)N3Cc4cccc(F)c4C3)CN2C1=O` [ITMN-191], for which the “additivity or synergy with clemizole” value is given as “additivity”.

Take `CC(C)(C)NC(=O)N[C@H](C(=O)N1C[C@H]2[C@@H]([C@H]1C(=O)NC(CC1CCC1)C(=O)C(N)=O)C2(C)C)C(C)(C)C` (stereo partly shown) [SCH503034, boceprevir]: the “additivity or synergy with clemizole” value was “strong synergy”.

`CCC[C@H](NC(=O)[C@@H]1[C@H]2CCC[C@H]2CN1C(=O)[C@@H](NC(=O)[C@@H](NC(=O)c1cnccn1)C1CCCCC1)C(C)(C)C)C(=O)C(=O)NC1CC1` [VX-950, telaprevir]: the “additivity or synergy with clemizole” value is given as “strong synergy”.

For `CC(C)[C@H](N)C(=O)O[C@@H]1[C@@H](CO)O[C@@H](n2ccc(N)nc2=O)[C@]1(C)O` [NM283, valopicitabine], the “additivity or synergy with clemizole” value was “additivity”.

The next test deals with HCV genotypes 1 and 2. The test can be described thus: CLEAN-1 study in HCV genotypes 1 and 2-infected patients. The conditions noted are these: 100 mg po BID, one month, 7 genotype 1b and 3 genotype 2a patients. It counts as in vivo.
As to `Clc1ccc(Cn2c(CN3CCCC3)nc3ccccc32)cc1` [clemizole], the viral load entry is given as “no reduction”.

Still in this test, the particulars now being: 100 mg po BID, over the treatment period.
Turning to `Clc1ccc(Cn2c(CN3CCCC3)nc3ccccc32)cc1` [clemizole], the ALT levels result is reported as “did decline”.

Still in this test, the particulars now being: one genotype 2 patient, 200 mg BID, one month.
In the case of `Clc1ccc(Cn2c(CN3CCCC3)nc3ccccc32)cc1` [clemizole], the viral loads entry is listed as “did not decrease”.

For a further test, the system named is HCV genotype 4. The test can be described thus: CLEAN 1.5 study in HCV genotype 4-infected patients. The format is in vivo. The settings on record: Day 1=150,000 IU/mL.
Consider `Clc1ccc(Cn2c(CN3CCCC3)nc3ccccc32)cc1` [clemizole], for which the “Viral Load Day 28, Patient 2, clemizole only arm” value is listed as 480,000 IU/mL.

The same test, now with this note: Day 1=330,000 IU/mL; clemizole 100 mg po BID and placebo.
Consider `Clc1ccc(Cn2c(CN3CCCC3)nc3ccccc32)cc1` [clemizole], for which the “Viral Load Day 28, Patient 1, clemizole only arm” value is 530,000 IU/mL.

The subject of another test is HCV (genotype 4). As to the kind of experiment: Treatment of patients chronically infected with HCV genotype 4 with clemizole. The conditions noted are these: clemizole 100 mg p.o. BID alone, 4 weeks, 3 genotype 4 patients. The format is in vivo.
Regarding `Clc1ccc(Cn2c(CN3CCCC3)nc3ccccc32)cc1` [clemizole], the “HCV viral load in the serum” value is on record as “completely, or nearly, undetectable”.

The next test has as its system HCV 1b RNA replicon. As to the kind of experiment: Luciferase assay for HCV genotype 1b replicon reporter cell lines. The conditions noted are these: Hepatitis C virus, 48 h, inhibition of 50% of replication of the 1b replicon. It counts as cell-based.
On to `Cc1cc2nc(CC3CCNC(C)C3)n(Cc3ccc(Cl)cc3)c2cc1C` (stereo not shown) [EBP881], for which a half-maximal response (EC50) required 4.7 µM.

Turning to `Cc1cc2nc(CCC3CCCN(C)C3)n(Cc3ccc(Cl)cc3)c2cc1C` (stereo not shown) [EBP558], the midpoint of the response, the EC50, lay at 11 µM.

`CC1CC(NCc2nc3ccccc3n2Cc2ccc(Cl)cc2)CCN1` (stereo not shown) [EBP809] registered an EC50 of 8.3 µM.

In turn, `Cc1cc2nc(CC3CCCCC3)n(Cc3ccc(Cl)cc3)c2cc1C` [EBP468] had an EC50 of 8 µM.

`Cc1cc2nc(C(C)CC3CCCNC3)n(Cc3ccc(Cl)cc3)c2cc1C` (stereo not shown) [EBP847] registered an EC50 of 7.9 µM.

Turning to `Cc1ccc2nc(CN3CCC[C@@H]3C)n(Cc3ccc(Cl)cc3)c2c1` [EBP490], the concentration giving a half-maximal response (EC50) was over 25 µM.

Consider `Cc1cc2nc(/C=C/c3ccccn3)n(Cc3ccc(Cl)cc3)c2cc1C` [EBP375], for which the concentration giving a half-maximal response (EC50) stood at 8.7 µM.

Consider `Cc1cc2nc(/C=C3\CCNC(C)C3)n(Cc3ccc(Cl)cc3)c2cc1C` (stereo not shown) [EBP869], for which the EC50 was found to be 4.6 µM.

Take `Clc1ccc(Cn2c(/C=C\C3CCN(CCCC4CCCCC4)C3)nc3cc(Br)ccc32)cc1` (stereo not shown) [EBP937]: the concentration for a half-maximal effect (EC50) was determined as 3.7 µM.

Take `C/C(=C\C1CCCNC1)c1nc2cc(C)c(C)cc2n1Cc1ccc(Cl)cc1` (stereo not shown) [EBP797]: a half-maximal effect (EC50) was put at 6.3 µM.

In turn, `Clc1ccc(Cn2c(CNCC3CCCNC3)nc3ccccc32)cc1` (stereo not shown) [EBP928] came in with a half-maximal effective concentration (EC50) of 9.2 µM.

Compound `CN1CCC(/C=C/c2nc3cc(NC4CCCCC4)ccc3n2Cc2ccc(Cl)cc2)C1` (stereo not shown) [EBP848] showed a 50% effective concentration (EC50) of 8.4 µM.

On to `Cc1cc2nc(CC3CCCNC3)n(Cc3ccc(Cl)cc3)c2cc1C` (stereo not shown) [EBP660], for which the EC50 came to 6.5 µM.

Compound `Cc1ccc2nc(CN3CCC[C@H]3CO)n(Cc3ccc(Cl)cc3)c2c1` [EBP426] showed a concentration for a half-maximal effect (EC50) of 10 µM.

For the compound `Clc1ccc(Cn2c(COCCC3CCNCC3)nc3ccccc32)cc1` [EBP995], a half-maximal response (EC50) required 5.3 µM.

`Cc1cc2nc(C=C3CC4CCC(C3)N4)n(Cc3ccc(Cl)cc3)c2cc1C` [EBP870]: the response was half-maximal at 3.7 µM (EC50).

`Cc1cc2nc(CN3CCC[C@H]3C)n(Cc3ccc(Cl)cc3)c2cc1C` [EBP273]: the concentration giving a half-maximal response (EC50) is over 25 µM.

On to `Cc1cc2nc(C(C)CC3CCCN3)n(Cc3ccc(Cl)cc3)c2cc1C` (stereo not shown) [EBP799], for which the EC50 came to 6 µM.

As to `Cc1cc2nc(C(C)Cc3ccncc3)n(Cc3ccc(Cl)cc3)c2cc1C` (stereo not shown) [EBP461], the midpoint of the response, the EC50, lay at 4.9 µM.

For the compound `Clc1ccc(Cn2c(/C=C/C3CCN(CC4CCCCC4)C3)nc3cc(Br)ccc32)cc1` (stereo not shown) [EBP933], the EC50 was determined as 1.8 µM.

Take `Clc1ccc(Cn2c(COCC3CCNCC3)nc3ccccc32)cc1` [EBP977]: the EC50 is 8.9 µM.

In the case of `Cc1cc2nc(CCC3CCCN3)n(Cc3ccc(Cl)cc3)c2cc1C` (stereo not shown) [EBP418], the response was half-maximal at 9.1 µM (EC50).

Turning to `Clc1ccc(Cn2c(CNC3CC4CCCC(C3)N4)nc3ccccc32)cc1` (stereo not shown) [EBP926], the concentration for a half-maximal effect (EC50) was determined as 5.4 µM.

`C/C(=C\C1CCNCC1)c1nc2cc(C)c(C)cc2n1Cc1ccc(Cl)cc1` [EBP771] registered a 50% effective concentration (EC50) of 7.5 µM.

`CN1CCC(CCc2nc3cc(-c4ccco4)ccc3n2Cc2ccc(Cl)cc2)C1` (stereo not shown) [EBP802] displayed a 50% effective concentration (EC50) of 8.1 µM.

Compound `CN1CCC(/C=C/c2nc3cc(-c4ccco4)ccc3n2Cc2ccc(Cl)cc2)C1` (stereo not shown) [EBP801] yielded an EC50 of 2.1 µM.

On to `Cc1cc2nc(CC3CCNCC3)n(Cc3ccc(Cl)cc3)c2cc1C` [EBP467], for which the concentration for a half-maximal effect (EC50) is 3.2 µM.

Regarding `Cc1cc2nc(/C=C/C3CCCN(C)C3)n(Cc3ccc(Cl)cc3)c2cc1C` (stereo not shown) [EBP549], the midpoint of the response, the EC50, lay at 7.5 µM.

`Cc1cc2nc(CCc3ccncc3)n(Cc3ccc(Cl)cc3)c2cc1C` [EBP417] showed an EC50 of 8.1 µM.

As for `Cc1cc2nc(C(C)CC3CCNCC3)n(Cc3ccc(Cl)cc3)c2cc1C` (stereo not shown) [EBP796], the EC50 came out at 4.7 µM.

Compound `Clc1ccc(Cn2c(COCC3CCCNC3)nc3ccccc32)cc1` (stereo not shown) [EBP978] came in with a concentration for a half-maximal effect (EC50) of 12 µM.

Turning to `Clc1ccc(Cn2c(CN3CCCC3)nc3ccccc32)cc1` [clemizole], the EC50 is over 20 µM.

`Cc1ccc2c(c1)nc(CN1CCC[C@H]1CO)n2Cc1ccc(Cl)cc1` [EBP317] returned a 50% effective concentration (EC50) of over 25 µM.

`Clc1ccc(Cn2c(/C=C/C3CCN(C4CCCC4)C3)nc3cc(Br)ccc32)cc1` (stereo not shown) [EBP934] displayed an EC50 of 5 µM.

`Cc1cc2nc(C=C3CC(C)(C)NC(C)(C)C3)n(Cc3ccc(Cl)cc3)c2cc1C` [EBP871] returned an EC50 of 2.7 µM.

`Clc1ccc(Cn2c(/C=C/C3CCN(CCCC4CCCCC4)C3)nc3cc(Br)ccc32)cc1` (stereo not shown) [EBP936]: the EC50 was 4.5 µM.

With `Clc1ccc(Cn2c(/C=C\C3CCN(C4CCCC4)C3)nc3cc(Br)ccc32)cc1` (stereo not shown) [EBP935], the response was half-maximal at 7.7 µM (EC50).

In the case of `Clc1ccc(Cn2c(CNC3CCNCC3)nc3ccccc32)cc1` [EBP805], the response was half-maximal at 11 µM (EC50).

The compound `Cc1cc2nc(/C=C/C3CCCNC3)n(Cc3ccc(Cl)cc3)c2cc1C` (stereo not shown) [EBP378] came in with a concentration for a half-maximal effect (EC50) of 4 µM.

As to `Cc1cc2nc(/C=C/C3CCNC3)n(Cc3ccc(Cl)cc3)c2cc1C` (stereo not shown) [EBP372], the EC50 was 2.8 µM.

The compound `Cc1cc2nc(/C=C/C3CCCN3C)n(Cc3ccc(Cl)cc3)c2cc1C` (stereo not shown) [EBP470] returned an EC50 of 2.5 µM.

The compound `Cc1cc2nc(/C=C/C3CCCN(S(C)(=O)=O)C3)n(Cc3ccc(Cl)cc3)c2cc1C` (stereo not shown) [EBP550] gave an EC50 of 9.3 µM.

On to `C/C(=C\C1CCCN1)c1nc2cc(C)c(C)cc2n1Cc1ccc(Cl)cc1` (stereo not shown) [EBP800], for which the concentration for a half-maximal effect (EC50) amounted to 7.9 µM.

The test is the same for the next values; noted with them: inhibition of 50% of replication of the 1b replicon, 48 hours.
As for `Clc1ccc(Cn2c(CN3CCCC3)nc3ccccc32)cc1` [clemizole], the “1b EC50” value is given as “does not show significant activity”.

For a further test, the target named is hERG channel (Homo sapiens (Human), UniProt Q12809). As to the kind of experiment: hERG channel assay (whole cell patch clamp).
Details: not given
A general note: hERG is a cardiac potassium channel; its block is linked to QT prolongation.
As to `Clc1ccc(Cn2c(/C=C/C3CCN(CC4CCCCC4)C3)nc3cc(Br)ccc32)cc1` (stereo not shown) [EBP933], the 50% inhibitory concentration (IC50) is 1.1 µM.
